# According to ChEMBL document CHEMBL1201862, “PubChem BioAssay data set” (2004):
# Amino acid sequences for entries named in this document (tags omitted).
# UniProt P83916, whole entry, looked up: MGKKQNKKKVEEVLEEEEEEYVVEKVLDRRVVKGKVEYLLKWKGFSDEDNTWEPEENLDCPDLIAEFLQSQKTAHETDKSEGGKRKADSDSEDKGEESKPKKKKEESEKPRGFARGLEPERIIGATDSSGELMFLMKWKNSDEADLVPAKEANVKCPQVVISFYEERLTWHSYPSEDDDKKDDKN
# UniProt Q14974, whole entry, looked up: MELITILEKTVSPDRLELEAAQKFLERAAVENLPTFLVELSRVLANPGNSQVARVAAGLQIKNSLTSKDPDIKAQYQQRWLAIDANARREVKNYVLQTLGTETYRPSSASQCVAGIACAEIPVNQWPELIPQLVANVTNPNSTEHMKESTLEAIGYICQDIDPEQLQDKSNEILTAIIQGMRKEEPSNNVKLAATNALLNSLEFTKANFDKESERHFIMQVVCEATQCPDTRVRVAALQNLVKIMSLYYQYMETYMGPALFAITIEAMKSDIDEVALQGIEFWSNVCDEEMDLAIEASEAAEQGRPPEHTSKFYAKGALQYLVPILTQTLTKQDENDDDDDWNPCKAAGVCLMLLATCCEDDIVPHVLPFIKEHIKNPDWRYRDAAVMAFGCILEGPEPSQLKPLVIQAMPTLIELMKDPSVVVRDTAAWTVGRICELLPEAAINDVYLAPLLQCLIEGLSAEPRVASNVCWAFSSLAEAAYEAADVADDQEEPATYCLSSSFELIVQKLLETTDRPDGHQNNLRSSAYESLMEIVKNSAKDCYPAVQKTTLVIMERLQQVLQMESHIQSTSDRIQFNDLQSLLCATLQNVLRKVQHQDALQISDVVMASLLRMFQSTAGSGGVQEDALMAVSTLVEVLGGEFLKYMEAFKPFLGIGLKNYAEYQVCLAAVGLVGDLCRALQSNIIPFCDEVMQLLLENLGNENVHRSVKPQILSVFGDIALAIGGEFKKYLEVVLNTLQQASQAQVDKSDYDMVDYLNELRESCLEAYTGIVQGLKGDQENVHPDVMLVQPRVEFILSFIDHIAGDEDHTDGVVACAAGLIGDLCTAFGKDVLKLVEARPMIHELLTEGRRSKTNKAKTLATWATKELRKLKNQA
# UniProt O95149, whole entry, looked up: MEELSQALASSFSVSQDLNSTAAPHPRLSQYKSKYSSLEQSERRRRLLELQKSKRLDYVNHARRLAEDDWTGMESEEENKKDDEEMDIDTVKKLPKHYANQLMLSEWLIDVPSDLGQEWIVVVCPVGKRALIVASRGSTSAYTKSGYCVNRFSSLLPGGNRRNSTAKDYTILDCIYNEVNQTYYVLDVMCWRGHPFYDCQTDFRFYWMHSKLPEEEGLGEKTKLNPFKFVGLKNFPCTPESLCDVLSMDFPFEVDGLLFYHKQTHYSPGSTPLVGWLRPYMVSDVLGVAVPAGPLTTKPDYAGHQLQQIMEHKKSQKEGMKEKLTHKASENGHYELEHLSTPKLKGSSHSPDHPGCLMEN
# Only a part is listed here, and it is no random draw. These assays gave more results; the selection is not random. This is one part of the list. Active and inactive are the calls of the source. Unless noted, no cut-off for these calls is given here.
# Tested on: microRNA 21
# Assay: qHTS Assay for Modulators of miRNAs and/or Activators of miR-21.
# Assay type: functional
# Conditions: Homo sapiens
row,SMILES,Potency
1,CCOC(=O)c1ccc(NC(=O)C(C)(CCl)SC)cc1 (stereo unspecified),inactive
2,ClCCSc1nnc(-c2cccnc2)o1,inactive
3,Cc1ccc2nc3c(c(C)c2c1)CC(C(Cl)Cl)S3 (stereo unspecified),inactive

# Target: T1, Nuclear receptor ROR-gamma (Mus musculus) (UniProt P51450)
# T1 sequence (whole entry): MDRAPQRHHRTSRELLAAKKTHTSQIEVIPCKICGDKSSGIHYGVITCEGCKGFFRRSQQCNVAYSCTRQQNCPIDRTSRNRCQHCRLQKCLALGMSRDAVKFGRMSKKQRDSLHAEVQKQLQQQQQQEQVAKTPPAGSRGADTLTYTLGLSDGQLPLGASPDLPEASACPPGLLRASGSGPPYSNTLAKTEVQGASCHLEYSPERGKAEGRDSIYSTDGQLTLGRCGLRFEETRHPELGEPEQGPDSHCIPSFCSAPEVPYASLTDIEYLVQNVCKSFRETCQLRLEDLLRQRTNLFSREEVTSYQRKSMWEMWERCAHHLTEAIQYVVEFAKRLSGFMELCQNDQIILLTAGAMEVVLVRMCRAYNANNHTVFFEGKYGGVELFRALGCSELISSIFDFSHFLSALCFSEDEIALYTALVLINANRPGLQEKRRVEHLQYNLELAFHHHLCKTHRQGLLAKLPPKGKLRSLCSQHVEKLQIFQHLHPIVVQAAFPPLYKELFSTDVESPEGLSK
# Assay: qHTS for inhibitors of ROR gamma transcriptional activity.
# Assay type: functional
# Conditions: not given
row,SMILES,Potency
1,Cc1nc2ccc3ccccc3c2o1,active: 17.8 µM
2,O=[N+]([O-])c1cc([N+](=O)[O-])c(NCC2CCS(=O)(=O)C2)c([N+](=O)[O-])c1 (stereo unspecified),active: 2 µM
3,CCc1nc2c([nH]1)c1no[n+]([O-])c1c1no[n+]([O-])c21,active: 12.6 µM

# Target: T2, 4'-phosphopantetheinyl transferase ffp (Bacillus subtilis) (UniProt Q9F4F7)
# T2 sequence (whole entry): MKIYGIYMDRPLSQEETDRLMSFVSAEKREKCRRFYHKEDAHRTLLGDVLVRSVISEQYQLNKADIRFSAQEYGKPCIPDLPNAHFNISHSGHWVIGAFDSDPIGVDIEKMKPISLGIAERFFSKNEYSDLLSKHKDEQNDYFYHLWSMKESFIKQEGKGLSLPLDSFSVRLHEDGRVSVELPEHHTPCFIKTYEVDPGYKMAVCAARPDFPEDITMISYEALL
# Assay: qHTS Assay for Inhibitors of Bacillus subtilis Sfp phosphopantetheinyl transferase (PPTase).
# Assay type: functional
# Conditions: not given
row,SMILES,Potency
1,Cc1nc2ccc3ccccc3c2o1,active: 56.2 µM
2,CCc1nc2c([nH]1)c1no[n+]([O-])c1c1no[n+]([O-])c21,active: 56.2 µM
3,CC(C)C(=O)NC(Sc1ccccc1)C(Cl)(Cl)Cl (stereo unspecified),inactive

# Target: T3, Histone-lysine N-methyltransferase EHMT2 (Homo sapiens) (UniProt Q96KQ7)
# T3 sequence (whole entry): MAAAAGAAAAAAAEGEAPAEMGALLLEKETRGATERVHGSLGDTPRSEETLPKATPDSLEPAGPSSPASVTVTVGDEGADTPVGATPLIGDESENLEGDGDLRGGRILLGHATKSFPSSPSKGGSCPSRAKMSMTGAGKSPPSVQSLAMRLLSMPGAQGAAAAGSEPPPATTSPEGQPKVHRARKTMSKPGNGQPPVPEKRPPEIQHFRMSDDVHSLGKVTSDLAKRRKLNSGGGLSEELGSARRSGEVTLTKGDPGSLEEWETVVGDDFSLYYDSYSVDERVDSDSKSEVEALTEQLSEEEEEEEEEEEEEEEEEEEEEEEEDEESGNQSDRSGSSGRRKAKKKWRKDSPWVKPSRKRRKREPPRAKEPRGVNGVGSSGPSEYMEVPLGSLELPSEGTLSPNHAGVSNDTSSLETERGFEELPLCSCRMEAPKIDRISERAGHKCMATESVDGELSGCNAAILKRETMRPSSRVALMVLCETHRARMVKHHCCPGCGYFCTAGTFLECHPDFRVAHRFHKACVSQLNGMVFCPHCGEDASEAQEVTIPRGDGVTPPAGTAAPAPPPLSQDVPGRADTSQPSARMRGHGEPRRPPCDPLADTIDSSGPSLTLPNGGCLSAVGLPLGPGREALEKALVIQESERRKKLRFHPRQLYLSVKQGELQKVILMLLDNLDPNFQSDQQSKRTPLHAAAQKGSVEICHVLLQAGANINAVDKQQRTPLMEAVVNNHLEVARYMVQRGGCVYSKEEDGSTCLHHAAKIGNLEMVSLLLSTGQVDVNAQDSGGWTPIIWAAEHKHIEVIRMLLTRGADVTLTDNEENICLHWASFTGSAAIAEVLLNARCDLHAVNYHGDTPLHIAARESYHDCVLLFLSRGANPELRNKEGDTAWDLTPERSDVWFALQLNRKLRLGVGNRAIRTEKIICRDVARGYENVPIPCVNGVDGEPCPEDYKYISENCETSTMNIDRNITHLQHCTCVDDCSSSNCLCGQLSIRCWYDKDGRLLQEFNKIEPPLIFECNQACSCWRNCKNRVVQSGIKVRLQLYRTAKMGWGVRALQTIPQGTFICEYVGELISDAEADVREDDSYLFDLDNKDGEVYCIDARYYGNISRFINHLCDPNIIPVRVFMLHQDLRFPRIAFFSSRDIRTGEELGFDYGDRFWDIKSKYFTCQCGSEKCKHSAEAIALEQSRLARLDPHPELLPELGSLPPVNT
# Assay: qHTS Assay for Inhibitors of Histone Lysine Methyltransferase G9a. [Related pubchem assays (depositor defined):AID504404]
# Assay type: functional
# Conditions: not given
row,SMILES,Potency
1,Cc1nc2ccc3ccccc3c2o1,active: 11.2 µM
2,O=[N+]([O-])c1cc([N+](=O)[O-])c(OC2CCCCC2O)c([N+](=O)[O-])c1 (stereo unspecified),active: 44.7 µM
3,CCc1nc2c([nH]1)c1no[n+]([O-])c1c1no[n+]([O-])c21,active: 56.2 µM

# Target: Chromobox protein homolog 1 (Homo sapiens) (UniProt P83916)
# Assay: HTS for Inhibitors of HP1-beta Chromodomain Interactions with Methylated Histone Tails. [Related pubchem assays (depositor defined):AID488962]
# Assay type: functional
# Conditions: not given
row,SMILES,Potency
1,Cn1c(=O)[nH]cc(N(CCCl)CCCl)c1=O,inactive
2,O=C(O)c1cccc(Nc2c([N+](=O)[O-])cc([N+](=O)[O-])cc2[N+](=O)[O-])c1,inactive
3,O=C1C(O)=C([N+](=O)[O-])C(=O)C(O)=C1[N+](=O)[O-],active: 25.1 µM
4,Cc1cc(N(CCCl)CCCl)ccc1C=O,inactive

# Target: T4, Thioredoxin reductase 1, cytoplasmic (Rattus norvegicus) (UniProt O89049)
# T4 sequence (whole entry): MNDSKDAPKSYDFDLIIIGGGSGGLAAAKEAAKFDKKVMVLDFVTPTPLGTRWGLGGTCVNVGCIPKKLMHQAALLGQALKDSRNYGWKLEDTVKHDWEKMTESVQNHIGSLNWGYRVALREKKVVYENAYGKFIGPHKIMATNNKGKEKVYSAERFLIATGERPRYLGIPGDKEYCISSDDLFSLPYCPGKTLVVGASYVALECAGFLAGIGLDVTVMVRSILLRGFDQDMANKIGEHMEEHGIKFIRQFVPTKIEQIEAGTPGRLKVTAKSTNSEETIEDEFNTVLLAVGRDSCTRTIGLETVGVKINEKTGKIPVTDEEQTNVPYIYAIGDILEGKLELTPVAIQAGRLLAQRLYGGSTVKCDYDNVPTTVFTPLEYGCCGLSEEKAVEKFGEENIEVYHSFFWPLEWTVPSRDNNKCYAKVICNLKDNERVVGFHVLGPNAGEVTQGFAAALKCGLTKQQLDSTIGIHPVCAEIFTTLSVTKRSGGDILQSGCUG
# Assay: qHTS Assay for Inhibitors of Mammalian Selenoprotein Thioredoxin Reductase 1 (TrxR1): qHTS. [Related pubchem assays (depositor defined):AID488771]
# Assay type: functional
# Conditions: not given
row,SMILES,Potency
1,ClCCN(CCCl)c1ccc(C=C2C=CC=C2)cc1,active: 44.7 µM
2,Cn1c(=O)[nH]cc(N(CCCl)CCCl)c1=O,active: 35.5 µM
3,O=C(O)c1cccc(Nc2c([N+](=O)[O-])cc([N+](=O)[O-])cc2[N+](=O)[O-])c1,active: 10 µM
4,CCc1nc2c([nH]1)c1no[n+]([O-])c1c1no[n+]([O-])c21,active: 11.2 µM

# Target: GTP-binding nuclear protein Ran/Importin subunit beta-1/Snurportin-1 (Homo sapiens) (UniProt P62826+Q14974+O95149)
# Assay: qHTS Assay for Inhibitors of RanGTP induced Rango (Ran-regulated importin-beta cargo) - Importin beta complex dissociation. [Related pubchem assays (depositor defined):AID540262]
# Assay type: functional
# Conditions: not given
row,SMILES,Potency
1,O=[N+]([O-])c1ccc(-c2cc([N+](=O)[O-])c(O)c([N+](=O)[O-])c2)cc1,inactive
2,O=[N+]([O-])c1ccc2nc3c([N+](=O)[O-])cc([N+](=O)[O-])cc3c(O)c2c1,inactive
3,CN(C(=O)Cc1ccc(Cl)c(Cl)c1)C1CCCCC1N1CCCC1 (stereo unspecified),inactive
4,O=P(Nc1nccs1)(c1ccccc1)c1ccccc1,inactive
5,NC(=O)c1cc([N+](=O)[O-])cc([N+](=O)[O-])c1N,inactive
6,Nc1cccc2c([As](=O)(O)O)cccc12,inactive
